Laboratory results from PubChem BioAssay AID629 (Emory University Molecular Libraries Screening Center, 2007).
The list shows a part of the results, in another mix than the full data. Some tests of the compounds listed are not included; inactive here does not mean inactive elsewhere. Activity calls are given as the source filed them. Cut-off read from the data, not from the text of the source: active = inhibition above about 50%; inactive = the rest.

Amino acid sequences for entries named in this document (tags omitted).
UniProt P03372, whole entry: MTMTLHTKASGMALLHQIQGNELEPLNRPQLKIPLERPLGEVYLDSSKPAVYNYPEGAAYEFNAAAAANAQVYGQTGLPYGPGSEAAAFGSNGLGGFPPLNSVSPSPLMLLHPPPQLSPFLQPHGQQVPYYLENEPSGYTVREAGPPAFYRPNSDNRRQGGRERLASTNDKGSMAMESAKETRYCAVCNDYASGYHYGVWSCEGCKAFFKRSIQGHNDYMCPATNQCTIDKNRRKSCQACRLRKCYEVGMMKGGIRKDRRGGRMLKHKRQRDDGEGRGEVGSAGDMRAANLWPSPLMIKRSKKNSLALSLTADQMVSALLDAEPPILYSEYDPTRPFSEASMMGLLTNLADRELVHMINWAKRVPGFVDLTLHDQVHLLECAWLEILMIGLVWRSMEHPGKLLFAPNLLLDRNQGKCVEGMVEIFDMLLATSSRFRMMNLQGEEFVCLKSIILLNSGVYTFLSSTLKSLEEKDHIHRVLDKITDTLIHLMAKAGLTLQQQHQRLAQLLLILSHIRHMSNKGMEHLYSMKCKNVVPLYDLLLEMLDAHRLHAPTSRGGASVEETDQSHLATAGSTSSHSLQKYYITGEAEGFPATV

target: Estrogen receptor (Homo sapiens) (UniProt P03372); assay: blockers of SRC-1 peptide recruitment to ERα – biochemical, TR-FRET, ERα LBD, estradiol-bound, primary screen (AID 629); details: TR-FRET ER-alpha LBD / SRC-1 peptide, at 25.6 µM, stronger effect = higher value;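 note: 0% = receptor plus peptide control and 100% = peptide only without receptor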

SMILES	inhibition
O=C(OC1CN2CCC1CC2)C(CO)(c1ccccc1)c1ccccc1 (configuration not stated)	inactive: -6.63%
CN(C)c1cccc(C(=O)NCC2(N(C)C)CCCCC2)c1	inactive: 3.39%
